Results as given in publication PMC3082441 (Journal of medicinal chemistry, 2008).

Tested on: endogenous tmACs expressed in HEK293T cells
Assay type: biochemical, mammalian

SMILES: O=C(O)c1cc2c(cc1S(=O)(=O)O)C1C(C3C2C2(Cl)C(Cl)=C(Cl)C3(Cl)C2(Cl)Cl)C2(Cl)C(Cl)=C(Cl)C1(Cl)C2(Cl)Cl (stereo not shown) [Compound 3, 1,2,3,4,5,6,7,8,13,13,14,14-dodecachloro-1,4,4a,4b,5,8,8a, 12b-octahydro-11-sulfo-1,4:5,8-dimethanotriphenylene-10-carboxylic acid]
- Inhibition of forskolin-stimulated AC activity in HEK293T whole cell extracts: inhibited this activity only slightly
